T1: Recombinant human heavy chain 1 (rHC1) D298A mutant (human, UniProt P19827 35-672, D298A)
T1 sequence: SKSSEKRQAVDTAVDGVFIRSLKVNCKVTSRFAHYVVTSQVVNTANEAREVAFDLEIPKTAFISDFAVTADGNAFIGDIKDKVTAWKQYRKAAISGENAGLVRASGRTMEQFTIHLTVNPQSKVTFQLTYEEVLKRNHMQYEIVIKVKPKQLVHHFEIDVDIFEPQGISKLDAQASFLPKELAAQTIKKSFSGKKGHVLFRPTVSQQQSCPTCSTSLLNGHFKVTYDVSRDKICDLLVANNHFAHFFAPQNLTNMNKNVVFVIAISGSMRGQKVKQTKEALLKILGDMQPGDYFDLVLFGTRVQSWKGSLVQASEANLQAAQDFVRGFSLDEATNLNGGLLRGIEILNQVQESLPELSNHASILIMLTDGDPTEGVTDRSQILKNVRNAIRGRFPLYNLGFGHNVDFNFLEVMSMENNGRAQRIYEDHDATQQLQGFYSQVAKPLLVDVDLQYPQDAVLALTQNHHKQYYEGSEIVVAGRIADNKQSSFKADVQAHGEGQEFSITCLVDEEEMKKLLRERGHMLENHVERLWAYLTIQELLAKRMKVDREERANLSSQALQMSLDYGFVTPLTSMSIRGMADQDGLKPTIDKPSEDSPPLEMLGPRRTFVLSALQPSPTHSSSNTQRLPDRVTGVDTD

T2: Recombinant human heavy chain 1 (rHC1) of inter-alpha-inhibitor, wild type (human, UniProt P19827 35-672)
T2 chain: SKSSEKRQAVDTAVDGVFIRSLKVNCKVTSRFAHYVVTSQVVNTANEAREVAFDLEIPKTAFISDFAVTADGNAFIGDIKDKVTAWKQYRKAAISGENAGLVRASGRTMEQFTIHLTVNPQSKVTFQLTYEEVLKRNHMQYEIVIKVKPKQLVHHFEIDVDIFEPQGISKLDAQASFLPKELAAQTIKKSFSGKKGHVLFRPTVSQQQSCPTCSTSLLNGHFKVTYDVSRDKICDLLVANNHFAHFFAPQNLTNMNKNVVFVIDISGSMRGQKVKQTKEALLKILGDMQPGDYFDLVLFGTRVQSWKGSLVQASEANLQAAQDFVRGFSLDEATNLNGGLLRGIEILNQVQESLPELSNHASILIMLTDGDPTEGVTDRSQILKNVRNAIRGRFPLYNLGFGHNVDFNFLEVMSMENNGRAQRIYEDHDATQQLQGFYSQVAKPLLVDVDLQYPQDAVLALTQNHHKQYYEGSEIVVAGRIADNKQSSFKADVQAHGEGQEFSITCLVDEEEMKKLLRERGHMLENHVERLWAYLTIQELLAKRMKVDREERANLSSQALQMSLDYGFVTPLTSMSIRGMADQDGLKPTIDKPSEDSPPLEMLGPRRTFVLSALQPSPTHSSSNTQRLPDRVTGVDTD


Key:
[1] = target: T1, Recombinant human heavy chain 1 (rHC1) …; test: SPR; + 10 mM EDTA
[2] = target: T1, Recombinant human heavy chain 1 (rHC1) …; test: SPR; + 10 mM EDTA; remark: listed apart in the source
[3] = target: T1, Recombinant human heavy chain 1 (rHC1) …; test: SPR
[4] = target: T2, Recombinant human heavy chain 1 (rHC1) …; test: SPR
[5] = target: T1, Recombinant human heavy chain 1 (rHC1) …; test: SPR; remark: listed apart in the source
[6] = target: T2, Recombinant human heavy chain 1 (rHC1) …; test: SPR

Kd [1] | koff [2] | Kd [3] | Kd [4] | koff [5] | koff [6] | Binder
4.4 nM | 0.003 s⁻¹ |  |  |  |  | Full-length human TSG-6 (rhTSG-6), wild type (natural protein) WGFKDGIFHNSIWLERAAGVYHREARSGKYKLTYAEAKAVCEFEGGHLATYKQLEAARKIGFHVCAAGWMAKGRVGYPIVKPGPNCGFGKTGIIDYGIRLNRSERWDAYCYNPHAKECGGVFTDPKQIFKSPGFPNEYEDNQICYWHIRLKYGQRIHLSFLDFDLEDDPGCLADYVEIYDSYDDVHGFVGRYCGDELPDDIISTGNVMTLKFLSDASVTAGGFQIKYVAMDPVSKSSQGKNTSTTSTGNKNFLAGRFSHL
 |  | 2.8 nM | 2.6 nM | 0.0014 s⁻¹ | 0.0014 s⁻¹ | Link_TSG6 (recombinant Link module from human TSG-6) (domain or fragment) GVYHREARSGKYKLTYAEAKAVCEFEGGHLATYKQLEAARKIGFHVCAAGWMAKGRVGYPIVKPGPNCGFGKTGIIDYGIRLNRSERWDAYCYNPHAK

Reference: PMC4661386 (2015)
